Assay results: ChEMBL document CHEMBL3233011, “Structural modifications of CH(OH)-DAPYs as new HIV-1 non-nucleoside reverse transcriptase inhibitors” (Bioorg Med Chem, 2014)
pIC50: −log10 of the molar value.

Biological target: Human immunodeficiency virus type 1 reverse transcriptase (Human immunodeficiency virus 1, UniProt Q72547)
Assay: Inhibition of wild-type HIV1 reverse transcriptase p66/p51 after 40 mins by spectrophotometry

In the case of `Cc1cc(C#N)cc(C)c1Oc1nc(Nc2ccc(C#N)cc2)nc(N)c1Br` [ETRAVIRINE], the pIC50 was 7.80.
